Biological target: T1, JAK3: Recombinant human kinase domain (Homo sapiens, UniProt P52333)
T1 construct: JAK3: Recombinant human kinase domain from Millipore (Cat #14-629) or prepared; purchased Millipore 14-629
Assay: Determination of IC50 of Janus Kinase (JAK) inhibition, radioactive end-point 33P-ATP assay, JAK3
Assay type: biochemical
Details: ATP 1.5 uM, peptide 50 uM, 20 minutes, read-out: JAK3-INHIB-DR/v1~NO ADDITIVE~Enzyme_Conc = 100

By UniProt entry, the sequences of proteins in these tests, tags left out. Residues count along the entry.
UniProt P52333, 822-1111 limits assumed: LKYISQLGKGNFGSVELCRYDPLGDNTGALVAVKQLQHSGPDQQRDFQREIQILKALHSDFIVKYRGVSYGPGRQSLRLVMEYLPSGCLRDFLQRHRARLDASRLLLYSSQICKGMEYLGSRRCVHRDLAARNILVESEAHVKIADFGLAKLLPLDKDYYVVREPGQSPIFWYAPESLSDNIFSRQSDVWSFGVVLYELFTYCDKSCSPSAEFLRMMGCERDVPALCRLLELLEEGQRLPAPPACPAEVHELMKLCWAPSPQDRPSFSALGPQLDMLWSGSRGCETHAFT

Row | Structure (SMILES) | IC50
1 | C[C@@H](NC(=O)c1c[nH]c2ncc(-c3nn(C)c4ccccc34)nc12)C(=O)N1CC(C#N)C1 [Example I-7, 2-(1-Methyl-1H-indazol-3-yl)-5H-pyrrolo[2,3-b]pyrazine-7-carboxylic acid [(R)-2-(3-cyano-azetidin-1-yl)-1-methyl-2-oxo-ethyl]-amide] | 1.12 nM
2 | C[C@@H](NC(=O)c1c[nH]c2ncc(-c3nn(C)c4cc(C5CC5)ccc34)nc12)C(=O)N1CC(C#N)C1 [Example I-17, 2-(6-Cyclopropyl-1-methyl-1H-indazol-3-yl)-5H-pyrrolo[2,3-b]pyrazine-7-carboxylic acid [(R)-2-(3-cyano-azetidin-1-yl)-1-methyl-2-oxo-ethyl]-amide] | 2.86 nM
3 | CC[C@@H](NC(=O)c1c[nH]c2ncc(-c3nn(C)c4cc(Cl)ccc34)nc12)C(=O)N1CC(C#N)C1 [Example I-20, 2-(6-Chloro-1-methyl-1H-indazol-3-yl)-5H-pyrrolo[2,3-b]pyrazine-7-carboxylic acid [(R)-1-(3-cyano-azetidine-1-carbonyl)-propyl]-amide] | 0.4 nM
4 | Cn1nc(-c2cnc3[nH]cc(C(=O)N[C@@H](C(=O)N4CC(C#N)C4)C4CC4)c3n2)c2ccc(Cl)cc21 [Example I-21, 2-(6-Chloro-1-methyl-1H-indazol-3-yl)-5H-pyrrolo[2,3-b]pyrazine-7-carboxylic acid [(R)-2-(3-cyano-azetidin-1-yl)-1-cyclopropyl-2-oxo-ethyl]-amide] | 0.285 nM
5 | C[C@@H](NC(=O)c1c[nH]c2ncc(-c3cn(C)c4cc(Cl)ccc34)nc12)C(=O)N1CC(C#N)C1 [Example I-29, 2-(6-Chloro-1-methyl-1H-indol-3-yl)-5H-pyrrolo[2,3-b]pyrazine-7-carboxylic acid [(R)-2-(3-cyano-azetidin-1-yl)-1-methyl-2-oxo-ethyl]-amide] | 0.81 nM
6 | C[C@@H](NC(=O)c1c[nH]c2ncc(-c3ncn4cc(F)ccc34)nc12)C(=O)N1CC(C#N)C1 [Example I-32, 2-(6-Fluoro-imidazo[1,5-a]pyridin-1-yl)-5H-pyrrolo[2,3-b]pyrazine-7-carboxylic acid [(R)-2-(3-cyano-azetidin-1-yl)-1-methyl-2-oxo-ethyl)-amide] | 0.26 nM
7 | C[C@@H](NC(=O)c1c[nH]c2ncc(-c3ncn4cc(F)cc(F)c34)nc12)C(=O)N1CC(C#N)C1 [Example I-33, 2-(6,8-Difluoro-imidazo[1,5-a]pyridin-1-yl)-5H-pyrrolo[2,3-b]pyrazine-7-carboxylic acid [(R)-2-(3-cyano-azetidin-1-yl)-1-methyl-2-oxo-ethyl]-amide] | 0.975 nM
8 | Cn1nc(-c2cnc3[nH]cc(C(=O)N[C@@H](C(=O)N4CC(C#N)C4)C(C)(C)C)c3n2)c2ccc(Cl)cc21 [Example I-43, 2-(6-Chloro-1-methyl-1H-indazol-3-yl)-5H-pyrrolo[2,3-b]pyrazine-7-carboxylic acid [(R)-1-(3-cyano-azetidine-1-carbonyl)-2,2-dimethyl-propyl]-amide] | 0.63 nM
9 | C[C@@H](NC(=O)c1c[nH]c2ncc(-n3ncc4cc(Cl)ccc43)nc12)C(=O)N1CC(C#N)C1 [Example I-69, 2-(5-Chloro-indazol-1-yl)-5H-pyrrolo[2,3-b]pyrazine-7-carboxylic acid [(R)-2-(3-cyano-azetidin-1-yl)-1-methyl-2-oxo-ethyl]-amide] | 4.61 nM
10 | COc1ccc2c(-c3cnc4[nH]cc(C(=O)N[C@H](C)C(=O)N5CC(C#N)C5)c4n3)nn(C)c2c1 [Example I-84, 2-(6-Methoxy-1-methyl-1H-indazol-3-yl)-5H-pyrrolo[2,3-b]pyrazine-7-carboxylic acid [(R)-2-(3-cyano-azetidin-1-yl)-1-methyl-2-oxo-ethyl]-amide] | 0.735 nM
11 | C[C@@H](NC(=O)c1c[nH]c2ncc(-c3nn(C)c4cc(Cl)cc(F)c34)nc12)C(=O)N1CC(C#N)C1 [Example I-124, 2-(6-Chloro-4-fluoro-1-methyl-1H-indazol-3-yl)-5H-pyrrolo[2,3-b]pyrazine-7-carboxylic acid [(R)-2-(3-cyano-azetidin-1-yl)-1-methyl-2-oxo-ethyl]-amide] | 1.12 nM
12 | C[C@@H](NC(=O)c1c[nH]c2ncc(-c3cnc4cc(Cl)ccn34)nc12)C(=O)N1CC(C#N)C1 [Example I-221, 2-(7-Chloro-imidazo[1,2-a]pyridin-3-yl)-5H-pyrrolo[2,3-b]pyrazine-7-carboxylic acid [(R)-2-(3-cyano-azetidin-1-yl)-1-methyl-2-oxo-ethyl]-amide] | 2.48 nM

Reference: patent US8658646B2, “Pyrrolopyrazine kinase inhibitors” (Hoffmann-LaRoche Inc., priority 2011, dated 2014)
